Reference: patent publication US20220056087A1

Target: CD32a (THP-1)
Experiment: flow cytometry on THP-1 cells; blocked: anti-FcγR antibody to CD32a (PE); without blocker 54863

number printed in the histogram (unnamed; fluorescence of the CD32a stain) at 10ug/mL: 51400 | number printed in the histogram (unnamed; fluorescence of the CD32a stain) at 100ug/mL: 57200 | number printed in the histogram (unnamed; fluorescence of the CD32a stain) at 1000ug/mL: 44600
Substance: G001 (native IgG1 Fc) (from UniProt P01857 99-330)
